Measurements taken from patent publication US7338669B2, “Inorganic boranophosphate salts” (Bar-Ilan University, priority 2005, dated 2008).

Assay: Solubility of BPi salts in water and organic solvents
Format: physicochemical
Conditions: in water

With Ammonium Boranophosphate [Compound 2a] the water solubility was “highly water-soluble”.
